Target: mTOR (Homo sapiens (Human), UniProt P42345)
Assay: In vitro mTOR Lanthascreen assay
Format: biochemical
Conditions: average if run more than once
Text: The Invitrogen (Carlsbad, Calif.) mammalian target of rapamycin (mTOR) Lanthascreen assay can be used to quantitate mTOR kinase activity in an in vitro setting. Active mTOR phosphorylates eukaryotic translation initiation factor 4E binding protein 1 (4E-BP1) on residue threonine 46. This phosphorylation event can be detected with a phospho-specific terbium (Tb) labeled Ab, in turn bringing the Tb label in close proximity to the GFP tagged 4E-BP 1 and allowing for time-resolved fluorescence resonance energy transfer (TR-FRET), which correlates 4E-BP1 phosphorylation levels with mTOR kinase activity.
Enzyme reaction buffer can be prepared in deionized water containing 50 mM HEPES (pH 7.5), 0.01% Polysorbate 20, 1 mM EGTA, and 10 mM MnCl2.
Dilutions of the compound to be tested can be prepared in 96-well polypropylene plates (Fisher Scientific, Waltham, Mass.). One row represents a 10-point dose of compound diluted 1:3 in enzyme reaction buffer and 20% dimethyl sulfoxide (DMSO). The top concentration for all compounds is 36 μM. […]
The enzyme assay can be terminated upon the addition of 10 μL of 20 mM EDTA and 4 nM Tb-labeled anti-phospho-4E-BP1 [T46] antibody (Invitrogen, Carlsbad, Calif.). The assay plate can then be incubated at room temperature for 1 hour and results read on a Tecan Safire II plate reader (Tecan, Männedorf, Switzerland). […]

## COc1cc(-c2cnc3ccc(N4C(=O)OC[C@H]4Cc4ccccc4)cn23)cnc1OC [Example 14, (4R)-4-Benzyl-3-(3-(5,6-dimethoxy-3-pyridinyl)imidazo[1,2-a]pyridin-6-yl)-1,3-oxazolidin-2-one]
  IC50: 5.1 µM
